PubChem BioAssay AID1347071 (National Center for Advancing Translational Sciences (NCATS), 2019)
Where “and” joins values, the source holds several entries; their conditions need not be identical. Identical values can stand only once. This is a selection; strong and weak results do not stand in their true shares. Some tests of the compounds listed are not included; inactive here does not mean inactive elsewhere. Calls of active or inactive are those of the source. Calls come from the whole dose curve; as a rule, active = well fitted activation curve with a large enough effect; inconclusive = small, poorly fitted or top-dose-only effect; inactive = no such curve, though single readings can be large or run the other way.

Experiment: qHTS for compounds that reverse cellular toxicity of Amyloid beta (A-beta) peptide in yeast: Primary Screen; note: nearly all actives have a fitted effect of over 55% in size
Conditions: yeast expressing A-beta42, growth rescue, OD600, 48 h, 0% DMSO, 100% iron-clioquinol control; at 46.1 µM (top of the series)
Excerpt: The A-beta peptide is produced by the processing of the amyloid precursor protein (APP) by two proteases, beta and gamma secretases. […] A-beta42 is regarded as the most amyloidogenic form due to its hydrophobicity; however, precisely how A-beta42 induces neurotoxicity is unclear. To understand further this biology and its potential therapeutic implications for human neurodegenerative disease, a quantitative high-throughput screen for compounds that reverse the cellular toxicity of the A-beta peptide was developed. A yeast based screen was used because it recapitulates the salient feature of protein mis-folding disorder accurately. This cell-based phenotypic screen provides a significant, unbiased advantage by letting the compounds and models inform us which proteins or pathways are most relevant. The ideal chemical candidates would therefore have activity in both our primary yeast and secondary neuronal toxicity assays, as well as in mouse models. They will be valuable tools for dissecting diverse protein homeostasis pathologies and could potentially become the focus for future pre-clinical development. For this luminescence assay, inhibition of A-beta rescues the toxic effect in the yeast cell, resulting in increase of signals and the desired phenotype of "Activator". This screen is run against the Molecular Libraries Small Molecule Repository (MLSMR) and the NCGC Sytravon Library Collection.
NIH Chemical Genomics Center [NCGC]
NIH Molecular Libraries Probe Centers Network [MLPCN]
Assay Submitter (PI): Susan Lindquist, Whitehead Institute, Massachusetts Institute of Technology
[1] Vassar R,et al (1999). Beta-secretase cleavage of Alzheimer's amyloid precursor protein by the transmembrane aspartic protease BACE. Science. 286: 735-741.
[2] Yan R, et al (1999). Membrane-anchored aspartyl protease with Alzheimer's disease beta-secretase activity. Nature. 402: 533-536.
Two and a half microliter / well of yeast growth medium were dispensed in a 1536 assay plate. Compounds were pinned using the Kalypsys robotic system followed by addition of 2.5 uL / well yeast solution. The assay plates were incubated at 30 C. After 48 hr, the absorbance signal at 600 nm was obtained using the PerkinElmer ViewLux plate reader to assess yeast growth. The data was normalized to the positive control of an equimolar mixture of ferric chloride (FeCl3) and clioquinol and to the negative control DMSO.

Structure (SMILES)	growth rescue
COc1cc(C(=O)NCC2(N(C)C)CCCCC2)c([N+](=O)[O-])cc1OC	inactive: -2.23%
CN(C)C1(CNC(=O)c2ccc(Br)cc2)CCCCC1	inactive: -13.7%
O=C(NCC1(N2CCCCC2)CCCCC1)c1cccc(Cl)c1	inactive: -2.93%
COc1ccc(Cl)cc1C(=O)NCC1(N(C)C)CCCCC1	inactive: -10.5%
COc1cccc(C(=O)NCC2(N3CCCCC3)CCCCC2)c1	inactive: -19.7%
COc1ccc(C(=O)NCC2(N(C)C)CCCCC2)cc1Cl	inactive: -10%
CC(C)COc1ccc(C(=O)NCC2(N(C)C)CCCCC2)cc1	inactive: -9.87%
COc1cccc(C(=O)NCC2(N3CCOCC3)CCCCC2)c1	inactive: -14.4%
O=C(OC1CN2CCC1CC2)C(CO)(c1ccccc1)c1ccccc1 (stereo unspecified)	inactive: 24.7%
O=C(OCCN1CCCC1)C(O)(c1ccccc1)c1ccccc1	inactive: 0.272%
CC(C)Oc1ccc(C(=O)NCC2(N(C)C)CCCCC2)cc1	inactive: -9.47% and inactive: 0.296%
CN(C)c1cccc(C(=O)NCC2(N(C)C)CCCCC2)c1	inactive: 1.28%
C=C(C)C#CC(O)(C(=O)OC1CCN(C)CC1)c1ccccc1 (stereo unspecified)	inactive: -18%
COc1ccc(Br)c(C(=O)NCC2(N3CCCCC3)CCCCC2)c1	inactive: -11.5%
Cc1cccc(C(=O)NCC2(N(C)C)CCCCC2)c1	inactive: -6.07%
COc1cc(C(=O)NCC2(N(C)C)CCCCC2)cc(OC)c1OC	inactive: -9%
CN1[C@@H]2CC[C@H]1CC(OC(=O)C(O)(c1ccccc1)c1ccccc1)C2 (stereo partly specified)	inactive: -7.23%
O=C(NCC1(N2CCCCC2)CCCCC1)c1cc([N+](=O)[O-])ccc1Cl	inactive: -2.62%

Structure (SMILES)	growth rescue
Cc1ccc(C(=O)NCC2(N3CCCCC3)CCCCC2)cc1	inactive: -23.8%
CN(C)C1(CNC(=O)c2ccccc2F)CCCCC1	inactive: -12.8%
COc1cc(SC)ccc1C(=O)NCC1(N(C)C)CCCCC1	inactive: -8.85%
CN(C)C1(CNC(=O)c2cccc(Cl)c2)CCCCC1	inactive: -8.23%
CCN(CC)CC(C)C(C)OC(=O)C(O)(c1ccccc1)c1ccccc1 (stereo unspecified)	inactive: -4.04%
CC(C)N1C(=O)CC2(CCN(CCOC(=O)C(O)(c3ccccc3)c3ccccc3)CC2)C1=O	inactive: 12.1%
CCCCOc1ccccc1C(=O)NCC1(N(C)C)CCCCC1	inactive: -20.3%
CN(C)c1ccc(C(=O)NCC2(N(C)C)CCCCC2)cc1	inactive: -5.35%
CN(C)C1CCCC1OC(=O)C(O)(c1ccccc1)c1ccccc1 (stereo unspecified)	inactive: -9.97%
Cc1ccccc1C(=O)NCC1(N2CCCCC2)CCCCC1	inactive: 4.27%
CN(C)C1(CNC(=O)c2ccccc2[N+](=O)[O-])CCCCC1	inactive: -13.9%
CCOc1cccc(C(=O)NCC2(N(C)C)CCCCC2)c1	inactive: -21.1%
COc1ccc(C(=O)NCC2(N(C)C)CCCCC2)cc1	inactive: 3.38%
O=C(NCC1(N2CCCCC2)CCCCC1)c1cccc(Br)c1	inactive: 6.73%
CCN1CCCC(OC(=O)C2(O)c3ccccc3C=Cc3ccccc32)C1 (stereo unspecified)	inactive: 0.362%
Cc1cc(C(=O)NCC2(N3CCCCC3)CCCCC2)ccc1[N+](=O)[O-]	inactive: -1.35%
O=C(NCC1(N2CCCCC2)CCCCC1)c1cc(F)c(F)cc1Cl	inactive: -8.88%
C=CCN1CCN(CCOC(=O)C(O)(c2ccccc2)c2ccccc2)CC1	inactive: 10.1%
